The experiment concerns the target Human Factor XIIa (Homo sapiens, UniProt P00748). Description: Determination of FXIIa inhibitory activity in vitro (fluorogenic substrate H-DPro-Phe-Arg-AFC). Conditions: read-out: Human FXIIa IC50, 25° C., residual enzyme activity (initial rate). The experiment is classed as biochemical.

Amino acid sequences for entries named in this document (tags omitted). Residues count along the entry.
UniProt P00748, 373-615 limits assumed: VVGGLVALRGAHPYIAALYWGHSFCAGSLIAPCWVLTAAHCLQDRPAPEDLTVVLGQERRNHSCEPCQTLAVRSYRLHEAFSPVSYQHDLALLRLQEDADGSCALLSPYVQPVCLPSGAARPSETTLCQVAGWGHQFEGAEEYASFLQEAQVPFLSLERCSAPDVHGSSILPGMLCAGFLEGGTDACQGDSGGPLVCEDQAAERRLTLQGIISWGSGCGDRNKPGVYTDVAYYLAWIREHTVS
UniProt P00748, 20-372 partner limits assumed: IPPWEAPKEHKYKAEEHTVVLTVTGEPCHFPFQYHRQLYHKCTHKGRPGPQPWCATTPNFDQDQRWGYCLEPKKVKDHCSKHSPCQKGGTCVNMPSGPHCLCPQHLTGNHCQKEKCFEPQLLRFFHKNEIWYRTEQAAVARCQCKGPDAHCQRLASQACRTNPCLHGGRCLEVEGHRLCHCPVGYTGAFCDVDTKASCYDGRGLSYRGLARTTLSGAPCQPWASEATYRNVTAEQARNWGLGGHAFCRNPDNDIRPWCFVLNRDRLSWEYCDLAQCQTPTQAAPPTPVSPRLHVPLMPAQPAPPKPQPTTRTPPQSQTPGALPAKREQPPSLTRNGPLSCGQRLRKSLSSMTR

pIC50: −log10 of the molar value.

Regarding `Nc1nccc2cc(CNC(=O)c3cc4c(Br)cccc4s3)ccc12`, the pIC50 (usually the negative decadic logarithm of the IC50, by convention in mol/L) was over 6.00.

Source of the values: US20220289727A1, “ENZYME INHIBITORS” (KALVISTA PHARMACEUTICALS LIMITED, priority 2019, published 2022).
